Source: ChEMBL document CHEMBL4602617, “Discovery and optimization of heteroaryl piperazines as potent and selective PI3Kδ inhibitors” (Bioorg Med Chem Lett, 2020)

Assays:
Homo sapiens [1] = species on record: Homo sapiens; experiment: Selectivity index, ratio IC50 for inhibition of recombinant human N-terminal His6-tagged full-length p120gamma expressed in Sf21 insect cells to ratio IC50 for inhibition of recombinant human full-length N-terminal GST-tagged p110delta/untagged full-length p85alpha expressed in baculovirus infected Sf21 cells
Homo sapiens [2] = species on record: Homo sapiens; experiment: (§1) Selectivity index, ratio IC50 for inhibition of recombinant human full-length N-terminal His6-tagged p110beta/untagged full-length p85alpha expressed in baculovirus infected Sf21 cells to ratio IC50 for inhibition of recombinant human full-length N-terminal GST-tagged p110delta/untagged full-length p85alpha expressed in baculovirus infected Sf21 cells
Homo sapiens [3] = species on record: Homo sapiens; experiment: as §1, with “p110alpha/untagged” for “p110beta/untagged”

**Q.** With `Cn1cc(-c2ncc(C#N)c(N3C[C@@H]4C[C@H]3CN4CC3CC3)n2)cn1` as the compound, how does the Ratio IC50 (Homo sapiens [1]) read?
**A.** 9

**Q.** And the Ratio IC50 (Homo sapiens [2])?
**A.** 9

**Q.** What about the Ratio IC50 (Homo sapiens [3]) of the same compound?
**A.** > 9
